Test results reported in patent publication US6846640B2, “Time-resolved fluorescence assay for the detection of multimeric forms of A-beta 1-40” (Pharmacia & Upjohn Company, priority 2002, dated 2005).

Protein sequences, listed by entry. Tags and fused reporters are not part of them. Residues count along the entry.
UniProt P05067, 672-711 limits assumed: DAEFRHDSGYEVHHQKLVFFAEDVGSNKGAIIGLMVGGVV

Biological target: T1, β-amyloid 1-40 (Homo sapiens, UniProt P05067)
T1 construct: Beta-amyloid 1-40 (Aβ) and biotin-labeled β-amyloid 1-40 peptides were purchased from Biosource; purchased Biosource (Camarillo, Calif.)
Test: TRF aggregation assay for β-amyloid polypeptide aggregation
Format: biochemical
Conditions: 50 ug/ml β-amyloid, 24 uM test compound, 2% DMSO, 37° C. for 24 hrs
Procedure: Beta-amyloid 1-40 (Aβ) and biotin-labeled β-amyloid 1-40 peptides were purchased from Biosource (Camarillo, Calif.). β-amyloid and biotinylated amyloid stock solutions, diluted in 0.1% acetic acid and corrected for 80% peptide content, were diluted to 83 μg/ml and 42 μg/ml, respectively, in reaction buffer (Dulbecco's PBS pH 7.4, 0.02% Tween 20). An equal mixture of the two β-amyloid products was then brought to a final concentration of 62.5 μg/ml total β-amyloid, giving a final 2:1 ratio of unbiotinylated to biotinylated Aβ polypeptide. When analyzing aggregation in the presence of test compound, 5 ul of diluted test compound (120 uM in 10% DMSO) was added to each well being analyzed in a 384-well polystyrene plate (Nunc). Test compounds are added over a range of concentrations. Twenty microliters of the β-amyloid reaction mixture was dispensed into each well of the 384 well plate, giving the final assay conditions as 24 uM test compound, 2% DMSO, and 50 ug/ml β-amyloid in a final volume of 25 uL. Plates were then sealed with foil sealers (Corning), and incubated at 37° C. for 24 hrs. […] Plates were washed with reaction buffer and 75 uL of DELFIA Enhancement solution (Wallac) was added to each well and the plates read on TRF capable plate reader (excitation at 337 run and emission at 620 nm).

Substance: ApoE3: known Aβ aggregation inhibitor
- prevents Aβ aggregation: 75%
